This is an account of results in ChEMBL document CHEMBL2424526, “Thrombin inhibitory activity of some polyphenolic compounds” (Med Chem Res, 2013).

The source made the active and inactive calls. The calls are words filed in the database; no cut-off is given here.

The target in experiment [1] is T1, Prothrombin (Homo sapiens, UniProt P00734). As to the kind of experiment: Inhibition of human thrombin amidolytic activity using D-Phe-Pip-Arg-pNA as substrate at 0.1 to 1000 uM preincubated for 10 mins followed by substrate addition measured every 12 secs for 10 mins by spectrophotometric analysis. The essentials: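 Human plasma thrombin (17.6 nM in 50 mM TBS pH 7.4) preincubated 10 min at 37 °C with compound (from 10 mM stocks in 50% DMSO; final DMSO 5%, final thrombin 15.8 nM), then added to 3 mM D-Phe-Pip-Arg-pNA stock. A415 read every 12 s for 10 min; Vmax per curve; IC50 estimated from inhibition curves.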

Experiment [2] deals with T1, Prothrombin. As to the kind of experiment: Inhibition of human thrombin assessed as equilibrium association constant at 50 to 1000 uM by BIAcore analysis. The essentials: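 Human plasma thrombin amine-coupled to a CM5 sensor chip from 50 mM acetate pH 6.0 (NHS/EDC activation, ethanolamine block). Running buffer PBS pH 7.4 at 25.0 °C. Each cycle at 10 μl/min: 900 s PBS baseline, 600 s polyphenol injection, 200 s PBS dissociation, then 0.1 M NaOH and 0.1 M HCl regeneration. Binding read as resonance units.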
For orientation: SPR reads the build-up and loss of mass on a sensor chip optically.

Take `O=C(O)/C=C/c1ccc(O)c(O)c1`: the inhibition result on Prothrombin [1] is “inactive”.
For `Oc1cc(O)c2cc(O)c(-c3ccc(O)c(O)c3)[o+]c2c1`, the Ka at Prothrombin [2] stood at 1.28 ×10⁸ /M.
Turning to `Oc1ccc(/C=C/c2cc(O)cc(O)c2)cc1`, on Prothrombin [1], the inhibition entry was “inactive”.
With `COc1cc(/C=C/C(=O)O)ccc1O`, the inhibition entry at Prothrombin [1] was “inactive”.
